# Source: PMC12304869 (Obesity (Silver Spring, Md.), 2025)
# Tests used:
# [1] = Phase 2 part 2a: adverse events in 32-week semaglutide run-in, SAS; assay type: in vivo, human; details: semaglutide 2.4 mg run-in
# [2] = assay type: in vivo, human; details: placebo + semaglutide 2.4 mg
substance,measurement,setting,value
semaglutide,AEs leading to treatment discontinuation,[1],four AEs led to treatment discontinuation
same,participants who discontinued the study product,"[2]; part 2, n = 28",5 participants
same,AEs leading to premature treatment discontinuation,[2]; part 2b,10.7%
same,gastrointestinal AEs,[2]; part 2b,29%
same,severe events,[2]; part 2b,4%
